Experimental data as given in patent US20080206201A1.

System: tumor cells that have a degree of resistance to the virus treatment
Assay: Cell killing by virus and prodrug, Giemsa staining
Conditions: virus MOI of 0.001 on day 2; doxorubicin or HMR1826 at 1 μM on day 3; Giemsa on day 8

Compound	cell killing / toxicity to the cells
COc1cccc2c1C(=O)c1c(O)c3c(c(O)c1C2=O)C[C@@](O)(C(=O)CO)C[C@@H]3O[C@H]1C[C@H](N)[C@H](O)[C@H](C)O1	kills the cells
doxorubicin-glucuronide	not toxic to the cells
